Like-named read-outs stand apart in the source and are kept apart here.
Tests used:
[1] = type: in vitro ADME, pig
Protocol: Pig eyes were treated with either […] or one of TVS (reverse sequence of SVT comprising amino acids in D-isomeric forms), […] and QGA, derived from the […] sequence. The eyes were then incubated in a dark humified chamber. The eyes were dissected, and the vitreous humour and retina were harvested. The samples were sonicated to break up the tissue and purified using a C18 column. Once purified, the samples were digested and analysed by mass spectrometry.

[2] = system: PBLs on cytokine stimulated HDBECs; details: for % Inhibition (0.3 nM): 0.3 nM peptide; for % Inhibition (0.3 nM) / % Inhibition (3 nM): inhibition of PBL transmigration (as a percentage of adherent cells); for effectiveness in inhibiting PBL transmigration compared with PEPITEM (% Inhibition at 0.3 and/or 3 nM): PEPITEM 41.90; for % Inhibition (3 nM): 3 nM peptide; for potency at inhibiting the transmigration of T cells compared with PEPITEM (IC50): PEPITEM IC50 0.02
T1/2 in plasma (mouse) = type: in vitro ADME; details: for half-life: mouse, plasma, 1 μM peptide, 37° C.; for stability compared with PEPITEM: in mouse plasma, human plasma, and or mouse blood
Description: Take all measurements in duplicate.

[3] = system: primary murine calvarial osteoblasts; assay: Alkaline phosphatase activity, murine osteoblasts; type: cell-based, mouse; details: 8 days, vs untreated cells, FIG. 5b
Protocol: Skin was removed from around calvaria using forceps, and the calvaria was dissected out and cleaned of any contaminating tissue. Calvaria were added to αMEM media supplemented with 1 mg/ml of collagenase d (Roche, Basel, Switzerland, COLLD-RO). Tubes were then agitated at 37° C. for 10 minutes and the media discarded. αMEM media supplemented with 1 mg/ml of collagenase d was again added to calvaria and shaken at 37° C. for 30 minutes. Media (containing cells) was then removed and kept on ice. The calvaria were then again shaken at 37° C. for 10 minutes in 1.5 ml of αMEM media supplemented with 5 μM EDTA (Sigma-Aldrich, E7889) and the cell containing media transferred to the sample on ice, pooling the cells. […] Cells on ice were then spun down at 300 g for 4 minutes, resuspended in 1 ml of Basal media and counted using a haemocytometer. […] Mineralisation was assessed by quantifying the level of alkaline phosphate (ALP) activity (absorbance at 405 nm) per condition normalized to the absorbance generated by the untreated control (control on the graph). […] The plate was wrapped in foil and left to run for 45 minutes at 37° C. in an incubated shaker (SciQuip; Shropshire, UK) before being quantified using a Synergy HT plate reader (BioTek) with absorbance set at 405 nm.

[4] = system: antigen induced monoarthritis; assay: Monoarthritis model; type: in vivo, mice; details: intraperitoneal injection at 0, 24 h, 48 h and 72 h; FIG. 6
Protocol: Mice were injected (sub-cutaneously) on one occasion with 100 μl antigen (bovine serum albumin; BSA) containing Freund's complete adjuvant (CFA) into a maximum of two sites in the lower dorsal area. At day 21, the mice were injected (10 μl, intra-articular) with the same antigen alone, in the absence of CFA, in one knee joint and PBS in the contralateral knee joint as a non-inflamed control. Animals received immune modulating agents (PEPITEM; SVT; QGA; or PBS as a control) by intraperitoneal injection at time 0, 24 h, 48 h and 72 h. Joint swelling as a measure of inflammation was conducted using calibrated calipers.

[5] = system: inflammatory leukocytic infiltrate of mice with peritonitis; assay: Zymosan peritonitis, leukocyte sub-sets; type: in vivo; details: 4 hours after zymosan; FIG. 10c
Protocol: Wild type mice were injected by the intraperitoneal route with 0.1 mg of sterile zymosan, stimulating peritonitis. After 48 hours (for the T cell and B cell tests) or 4 hours (for the neutrophil tests), the inflammatory leukocytic infiltrate was collected by peritoneal lavage. Leukocytes were washed and labelled with sub-set specific antibodies conjugated with fluorescent markers. The number of each sub-set was analysed by flow cytometry.

[6] = system: neutrophils on TNF-α-stimulated endothelial cells; assay: Neutrophil adhesion to TNF-α-stimulated endothelial cells; type: cell-based; details: neutrophils pre-treated 15 minutes; FIG. 15
Protocol: Cultured endothelial cells (ECs) were stimulated with 100 U of TNF-α for 4 hours. Neutrophils were isolated from freshly drawn whole blood. Neutrophils or ECs were pre-treated with PEPITEM, SVT, or QGA for 15 minutes prior to adhesion assay or were untreated. Neutrophils were added to wells containing stimulated ECs and incubated for 15 minutes. Wells were fixed and none-adherent neutrophils washed out. Adhesion was assessed by phase contrast microscopy. Data are form at least 3 independent experiments. **=p<0.01 by ANOVA.

[7] = human, plasma
[8] = system: Murine macrophage cell line J774; assay: Cytokine release from macrophages; type: cell-based; details: 15 minutes pretreatment, LPS, 24 h, at least to the same extent as PEPITEM
Protocol: (§1) Murine macrophage cell line J774 was established in culture. Cells were treated with PEPITEM, tripeptides, or peptide-mimetics for 15 minutes or had no treatment prior to the addition of LPS (a phlogistic stimulus). Supernatants were collected at 24 h. IL-6 and TNF-α concentrations in the supernatants were measured using ELISA. Data are from 3 experiments, ####=p<0.0001 vs control group; *=p<0.05: **=P≤0.01 vs LPS, by ANOVA.

[9] = system: NIH3T3 mouse embryonic fibroblast cells; assay: Cytokine release from fibroblasts; type: cell-based; details: 15 minutes pretreatment, LPS, 24 h, at least to the same extent as PEPITEM
Protocol: as §1, with “NIH3T3 mouse embryonic fibroblast cells were” for “Murine macrophage cell line J774 was”, “tripeptides” for “tripeptides,”, “LPS.” for “LPS (a phlogistic stimulus).”, “###=p<0.001, ##=p<0.01” for “####=p<0.0001”

[10] = system: HaCaT human epidermal keratinocytes; assay: Keratinocyte proliferation (MTT); type: cell-based; details: M5 cytokines, 72 hours; at least to the same extent as PEPITEM; FIG. 14
Protocol: HaCaT human epidermal keratinocytes were established in culture in 96 well plates. Cells were treated with PEPITEM, tripeptides or peptide-mimetics for 15 minutes or had no treatment prior to the addition of M5 cytokines (IL-17A, IL-22, IL-1α, OSM and TNFα). After 72 hours, MTT substrate was added to the wells and incubated for 3 hours. Colourimetric intensity as a measure of proliferation was assayed using a plate reader.

SMILES | half-life (T1/2 in plasma (mouse)) [h] | IC50 [2] [nM] | % Inhibition (0.3 nM) [2] [%] | effectiveness in inhibiting PBL transmigration compared with PEPITEM (% Inhibition at 0.3 and/or 3 nM) [2] | stability compared with PEPITEM (T1/2 in plasma (mouse)) | half-life [7] [h] | % Inhibition (3 nM) [2] [%] | also measured
CC(=O)N[C@@H](CCC(N)=O)C(=O)NCC(=O)N[C@@H](C)C(=O)O [QGA] | – | – | – | – | – | – | – | eye tissue in which the peptide was found by mass spectrometry [1]: Retina only; IC50, inhibition of trans-endothelial migration of PBLs [2]: 0.009438 ng/mL
CC(C)[C@H](NC(=O)[C@@H](N)CO)C(=O)N[C@H](C(=O)O)[C@@H](C)O [SEQ ID NO. 2, H-SVT] | 0.333 | 0.15 | 42.20 | more effective | – | – | – | ALP activity (maturation mineralisation), murine osteoblasts [3]: significantly increased; knee / joint swelling [4]: equipotent in limiting joint swelling; number of neutrophils in the inflammatory leukocytic infiltrate [5]: reduce the number of neutrophils; neutrophil adhesion to endothelial cells [6]: reduce neutrophil adhesion to a greater extent than PEPITEM; eye tissue in which the peptide was found by mass spectrometry [1]: Vitreous humour & Retina; IC50, inhibition of trans-endothelial migration of PBLs [2]: 0.04558 ng/mL; effect on PBL adhesion ([2]; compared to untreated PBL (PBL0)): Neither the SVT tripeptide nor the QGA tripeptide exhibited any significant effect
CC(C)[C@H](NC(=O)[C@@H](N)CO)C(=O)N[C@H](C(N)=O)[C@@H](C)O [SEQ ID NO. 4, H-SVT-NH2] | > 3 | 0.01 | – | – | at least as stable | > 3 | 38.50 | potency at inhibiting the transmigration of T cells compared with PEPITEM (IC50) [2]: more potent
CCNC(=O)[C@@H](NC(=O)[C@@H](NC(=O)[C@@H](N)CO)C(C)C)[C@@H](C)O [SEQ ID NO. 6, H-SVT-NH-Ethyl] | > 3 | 0.017 | 46.00 | more effective | at least as stable | > 3 | – | ALP activity (maturation mineralisation), murine osteoblasts [3]: significantly increased; concentration of IL-6 released ([8]; FIG. 12A): reduce; concentration of TNF-α released ([8]; FIG. 12B): reduce; concentration of IL-6 released ([9]; FIG. 13A): reduce; concentration of TNF-α released ([9]; FIG. 13B): reduce; cell proliferation of keratinocytes [10]: reduce cell proliferation of keratinocytes; potency at inhibiting the transmigration of T cells compared with PEPITEM (IC50) [2]: more potent
C[C@@H](O)[C@H](NC(=O)[C@H](Cc1c[nH]c2ccccc12)NC(=O)[C@@H](N)CO)C(N)=O [SEQ ID NO. 17, H-SWT-NH2] | 1.23 | 0.0236 | 46.69 | more effective | – | – | 74.47 | –
CC(=O)N[C@@H](CCC(N)=O)C(=O)NCC(=O)N[C@@H](C)C(=O)O [SEQ ID NO. 19, Ac-QGA] | – | 0.03 | – | – | – | – | – | cell proliferation of keratinocytes [10]: reduce cell proliferation of keratinocytes
CC(=O)N[C@@H](CCC(N)=O)C(=O)NCC(=O)N[C@@H](C)C(N)=O [SEQ ID NO. 20, Ac-QGA-NH2] | 0.817 | 0.1 | – | – | at least as stable | > 3 | 28.60 | –

From patent US20250361271A1, “PEPTIDE AGONIST” (THE UNIVERSITY OF BIRMINGHAM, priority 2022, published 2025)
